Literature values, collected in patent US10172953B2, “XTEN conjugate compositions and methods of making same” (Amunix Operating Inc., priority 2012, dated 2019).

Conditions: reported or estimated half-life; cited from earlier work

Substance | half-life
PYY: human peptide YY polypeptide (UniProt No. P10082), includes PYY3-36 (SEQ ID NO: 544) | less than 1 h
factor X: coagulation protein (UniProt No. P00742(2-488)), SEQ ID NO: 574 | 40 to 45 h
